Assay results: ChEMBL document CHEMBL5316271, “Microtubule-Stabilizing 1,2,4-Triazolo[1,5-a]pyrimidines as Candidate Therapeutics for Neurodegenerative Disease: Matched Molecular Pair Analyses and Computational Studies Reveal New Structure-Activity Insights” (J Med Chem, 2023)

Protein sequences, listed by entry. Tags and fused reporters are not part of them. Lines headed by an entry give the natural chain unless they say otherwise; changes in a name come on top.
UniProt P68371: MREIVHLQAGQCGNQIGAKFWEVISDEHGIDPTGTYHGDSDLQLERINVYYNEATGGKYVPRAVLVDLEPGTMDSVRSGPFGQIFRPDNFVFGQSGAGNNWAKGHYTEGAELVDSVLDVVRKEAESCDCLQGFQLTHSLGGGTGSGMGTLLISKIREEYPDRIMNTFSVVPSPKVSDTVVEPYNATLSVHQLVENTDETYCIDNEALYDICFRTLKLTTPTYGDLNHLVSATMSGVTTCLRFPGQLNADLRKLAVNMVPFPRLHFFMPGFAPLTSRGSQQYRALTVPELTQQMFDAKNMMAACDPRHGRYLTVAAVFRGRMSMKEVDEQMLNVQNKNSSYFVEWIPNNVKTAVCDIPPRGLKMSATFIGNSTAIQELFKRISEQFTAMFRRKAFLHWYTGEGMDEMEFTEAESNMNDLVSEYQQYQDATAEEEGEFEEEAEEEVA
UniProt Q9H4B7: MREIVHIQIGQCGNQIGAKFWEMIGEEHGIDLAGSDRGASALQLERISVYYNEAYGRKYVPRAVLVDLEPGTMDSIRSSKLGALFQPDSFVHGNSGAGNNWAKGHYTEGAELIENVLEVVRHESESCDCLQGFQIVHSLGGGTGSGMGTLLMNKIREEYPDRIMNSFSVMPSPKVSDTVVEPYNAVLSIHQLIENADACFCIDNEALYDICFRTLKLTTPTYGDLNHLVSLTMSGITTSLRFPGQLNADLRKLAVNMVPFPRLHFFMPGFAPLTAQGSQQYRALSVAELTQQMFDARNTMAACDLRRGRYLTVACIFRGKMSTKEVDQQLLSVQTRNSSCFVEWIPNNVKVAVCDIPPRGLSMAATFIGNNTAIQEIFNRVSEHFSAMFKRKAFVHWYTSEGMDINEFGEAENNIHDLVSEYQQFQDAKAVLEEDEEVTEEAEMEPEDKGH
UniProt P0DPH7: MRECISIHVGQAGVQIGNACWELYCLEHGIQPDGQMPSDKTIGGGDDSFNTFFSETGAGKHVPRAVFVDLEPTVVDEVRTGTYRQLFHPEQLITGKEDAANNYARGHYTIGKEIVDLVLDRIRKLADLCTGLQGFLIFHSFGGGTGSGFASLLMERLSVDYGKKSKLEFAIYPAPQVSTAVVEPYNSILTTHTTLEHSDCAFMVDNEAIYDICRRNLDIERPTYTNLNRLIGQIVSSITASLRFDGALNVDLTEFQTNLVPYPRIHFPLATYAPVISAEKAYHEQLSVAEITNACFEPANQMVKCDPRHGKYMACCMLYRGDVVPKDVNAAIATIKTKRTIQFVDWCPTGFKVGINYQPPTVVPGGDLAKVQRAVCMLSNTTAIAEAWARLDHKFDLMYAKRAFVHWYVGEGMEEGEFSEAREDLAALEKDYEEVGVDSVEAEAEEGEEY
UniProt P68366: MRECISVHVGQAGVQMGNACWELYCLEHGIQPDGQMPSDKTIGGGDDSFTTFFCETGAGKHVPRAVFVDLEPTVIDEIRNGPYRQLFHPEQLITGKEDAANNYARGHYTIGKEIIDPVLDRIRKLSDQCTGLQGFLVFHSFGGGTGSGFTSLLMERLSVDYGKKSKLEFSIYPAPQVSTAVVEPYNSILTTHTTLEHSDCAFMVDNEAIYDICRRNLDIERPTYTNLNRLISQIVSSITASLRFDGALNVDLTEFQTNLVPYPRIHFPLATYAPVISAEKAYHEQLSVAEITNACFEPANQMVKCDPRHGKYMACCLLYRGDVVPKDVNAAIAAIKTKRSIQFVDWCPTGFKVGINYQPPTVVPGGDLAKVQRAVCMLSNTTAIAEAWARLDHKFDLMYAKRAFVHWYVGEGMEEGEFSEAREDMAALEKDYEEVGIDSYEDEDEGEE
UniProt Q13509: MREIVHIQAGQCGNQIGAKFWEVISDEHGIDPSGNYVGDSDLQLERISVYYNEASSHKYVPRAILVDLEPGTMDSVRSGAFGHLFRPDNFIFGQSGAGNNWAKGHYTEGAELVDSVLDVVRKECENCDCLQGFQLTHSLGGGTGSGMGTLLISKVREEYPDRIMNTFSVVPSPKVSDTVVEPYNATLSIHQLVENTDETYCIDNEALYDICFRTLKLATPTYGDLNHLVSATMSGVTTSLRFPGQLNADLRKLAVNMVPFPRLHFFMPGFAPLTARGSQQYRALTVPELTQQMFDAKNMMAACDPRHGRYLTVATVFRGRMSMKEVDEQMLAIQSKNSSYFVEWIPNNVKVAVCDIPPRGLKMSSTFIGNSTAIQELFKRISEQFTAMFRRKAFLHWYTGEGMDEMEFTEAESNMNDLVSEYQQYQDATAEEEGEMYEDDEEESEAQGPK
UniProt Q71U36: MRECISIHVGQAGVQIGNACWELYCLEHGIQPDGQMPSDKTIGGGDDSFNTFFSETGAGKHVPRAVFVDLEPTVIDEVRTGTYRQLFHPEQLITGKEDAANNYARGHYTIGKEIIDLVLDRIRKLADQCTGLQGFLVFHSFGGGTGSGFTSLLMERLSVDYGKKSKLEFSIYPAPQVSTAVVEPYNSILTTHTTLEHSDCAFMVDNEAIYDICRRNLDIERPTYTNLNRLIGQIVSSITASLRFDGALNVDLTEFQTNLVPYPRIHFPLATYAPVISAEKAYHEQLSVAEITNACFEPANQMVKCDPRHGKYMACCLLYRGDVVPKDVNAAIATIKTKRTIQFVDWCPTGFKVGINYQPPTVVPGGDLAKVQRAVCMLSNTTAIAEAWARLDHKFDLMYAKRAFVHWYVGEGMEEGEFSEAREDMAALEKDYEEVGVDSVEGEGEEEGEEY
UniProt P04350: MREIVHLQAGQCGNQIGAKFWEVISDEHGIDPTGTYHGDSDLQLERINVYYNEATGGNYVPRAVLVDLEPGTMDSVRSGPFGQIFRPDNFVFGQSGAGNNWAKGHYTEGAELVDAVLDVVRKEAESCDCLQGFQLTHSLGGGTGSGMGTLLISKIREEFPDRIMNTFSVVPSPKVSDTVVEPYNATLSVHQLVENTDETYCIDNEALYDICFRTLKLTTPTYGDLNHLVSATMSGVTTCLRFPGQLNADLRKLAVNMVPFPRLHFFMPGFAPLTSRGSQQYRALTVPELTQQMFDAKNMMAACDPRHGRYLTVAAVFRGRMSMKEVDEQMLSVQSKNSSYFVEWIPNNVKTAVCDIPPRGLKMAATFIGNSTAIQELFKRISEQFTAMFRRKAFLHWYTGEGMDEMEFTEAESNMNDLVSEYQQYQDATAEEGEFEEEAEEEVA
UniProt P07437: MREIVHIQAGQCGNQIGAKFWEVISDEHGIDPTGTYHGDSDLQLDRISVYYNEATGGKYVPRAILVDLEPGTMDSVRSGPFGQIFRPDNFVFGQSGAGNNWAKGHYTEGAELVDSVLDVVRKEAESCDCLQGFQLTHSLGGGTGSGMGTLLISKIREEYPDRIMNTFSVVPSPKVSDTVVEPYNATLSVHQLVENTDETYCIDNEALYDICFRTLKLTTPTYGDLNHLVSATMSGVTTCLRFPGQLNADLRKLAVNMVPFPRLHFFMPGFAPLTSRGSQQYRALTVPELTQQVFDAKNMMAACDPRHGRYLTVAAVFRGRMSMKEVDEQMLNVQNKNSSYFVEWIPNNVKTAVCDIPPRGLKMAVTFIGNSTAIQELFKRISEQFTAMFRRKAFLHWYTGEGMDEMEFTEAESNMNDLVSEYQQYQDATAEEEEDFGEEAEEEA
UniProt P68363: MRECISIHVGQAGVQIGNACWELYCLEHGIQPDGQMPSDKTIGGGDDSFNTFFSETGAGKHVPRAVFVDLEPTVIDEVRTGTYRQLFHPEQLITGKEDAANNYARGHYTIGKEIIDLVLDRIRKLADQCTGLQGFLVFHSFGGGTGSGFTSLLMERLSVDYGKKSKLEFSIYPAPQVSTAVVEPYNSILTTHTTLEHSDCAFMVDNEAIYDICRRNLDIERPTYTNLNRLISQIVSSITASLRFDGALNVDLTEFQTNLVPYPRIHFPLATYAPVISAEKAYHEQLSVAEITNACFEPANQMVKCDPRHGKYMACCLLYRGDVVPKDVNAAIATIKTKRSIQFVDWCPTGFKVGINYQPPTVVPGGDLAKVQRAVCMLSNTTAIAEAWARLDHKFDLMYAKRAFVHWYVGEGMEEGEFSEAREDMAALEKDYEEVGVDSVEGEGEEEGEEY
UniProt Q9BQE3: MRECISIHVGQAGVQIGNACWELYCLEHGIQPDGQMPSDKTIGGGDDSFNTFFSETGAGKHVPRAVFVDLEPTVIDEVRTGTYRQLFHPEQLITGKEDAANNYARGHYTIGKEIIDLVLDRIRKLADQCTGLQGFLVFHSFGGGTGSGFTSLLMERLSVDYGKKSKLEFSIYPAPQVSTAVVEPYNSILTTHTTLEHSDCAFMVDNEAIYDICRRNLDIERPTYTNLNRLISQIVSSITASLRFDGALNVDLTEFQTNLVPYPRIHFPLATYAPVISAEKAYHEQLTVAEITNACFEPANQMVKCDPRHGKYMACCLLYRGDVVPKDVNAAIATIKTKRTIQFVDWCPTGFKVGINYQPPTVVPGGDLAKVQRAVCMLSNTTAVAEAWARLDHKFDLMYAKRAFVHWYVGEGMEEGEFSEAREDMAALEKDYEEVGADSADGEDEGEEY
UniProt Q6PEY2: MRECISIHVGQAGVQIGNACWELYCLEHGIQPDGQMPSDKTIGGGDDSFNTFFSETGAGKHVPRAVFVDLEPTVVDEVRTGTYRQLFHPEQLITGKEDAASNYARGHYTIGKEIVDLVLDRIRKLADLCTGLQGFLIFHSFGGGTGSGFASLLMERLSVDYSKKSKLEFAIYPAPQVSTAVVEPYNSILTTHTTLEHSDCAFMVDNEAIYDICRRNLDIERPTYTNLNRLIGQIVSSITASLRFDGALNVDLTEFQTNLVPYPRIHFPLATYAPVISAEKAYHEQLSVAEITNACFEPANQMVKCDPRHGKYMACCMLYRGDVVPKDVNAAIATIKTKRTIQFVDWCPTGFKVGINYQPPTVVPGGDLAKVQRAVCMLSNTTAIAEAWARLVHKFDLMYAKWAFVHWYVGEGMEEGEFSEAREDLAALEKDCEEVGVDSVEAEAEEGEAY
UniProt Q13885: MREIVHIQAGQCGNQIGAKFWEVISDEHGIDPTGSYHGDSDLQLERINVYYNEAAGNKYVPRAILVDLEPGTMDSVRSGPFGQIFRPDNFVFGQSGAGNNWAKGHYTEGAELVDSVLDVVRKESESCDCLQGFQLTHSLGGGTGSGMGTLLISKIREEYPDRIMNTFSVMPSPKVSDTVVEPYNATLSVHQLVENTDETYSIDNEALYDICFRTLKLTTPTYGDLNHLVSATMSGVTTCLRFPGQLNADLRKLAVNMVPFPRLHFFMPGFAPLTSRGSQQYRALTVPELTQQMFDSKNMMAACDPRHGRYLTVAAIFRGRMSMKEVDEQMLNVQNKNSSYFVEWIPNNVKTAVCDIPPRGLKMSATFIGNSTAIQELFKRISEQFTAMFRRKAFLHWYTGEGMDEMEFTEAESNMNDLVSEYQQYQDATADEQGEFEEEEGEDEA
UniProt Q9BVA1: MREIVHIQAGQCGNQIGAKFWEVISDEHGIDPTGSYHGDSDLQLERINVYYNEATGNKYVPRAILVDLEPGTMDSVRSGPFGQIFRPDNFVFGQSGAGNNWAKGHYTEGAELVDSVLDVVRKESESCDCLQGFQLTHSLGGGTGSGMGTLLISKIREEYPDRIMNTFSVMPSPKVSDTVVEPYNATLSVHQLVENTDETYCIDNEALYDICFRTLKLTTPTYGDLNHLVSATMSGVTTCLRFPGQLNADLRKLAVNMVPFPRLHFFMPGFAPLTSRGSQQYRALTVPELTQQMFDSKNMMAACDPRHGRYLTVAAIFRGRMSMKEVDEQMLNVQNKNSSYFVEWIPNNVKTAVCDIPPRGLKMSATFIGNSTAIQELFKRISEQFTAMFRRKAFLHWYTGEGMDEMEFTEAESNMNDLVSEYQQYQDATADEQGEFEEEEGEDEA
UniProt Q9BUF5: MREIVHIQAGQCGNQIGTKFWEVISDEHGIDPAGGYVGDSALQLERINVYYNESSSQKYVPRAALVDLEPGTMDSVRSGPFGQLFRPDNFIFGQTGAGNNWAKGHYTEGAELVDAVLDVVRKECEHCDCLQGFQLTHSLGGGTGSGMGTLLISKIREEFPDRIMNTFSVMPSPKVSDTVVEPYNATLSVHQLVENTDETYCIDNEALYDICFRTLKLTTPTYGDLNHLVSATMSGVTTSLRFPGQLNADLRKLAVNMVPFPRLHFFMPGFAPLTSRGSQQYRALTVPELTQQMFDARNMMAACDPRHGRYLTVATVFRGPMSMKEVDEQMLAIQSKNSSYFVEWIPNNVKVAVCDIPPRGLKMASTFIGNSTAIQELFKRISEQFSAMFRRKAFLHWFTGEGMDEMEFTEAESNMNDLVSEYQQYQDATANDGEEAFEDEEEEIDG

Legend:
Assay type in all cases: cell-based
[1] = biological target: T1, Tubulin (Homo sapiens) (UniProt P68371+Q9H4B7+P0DPH7+P68366+Q13509+Q71U36+P04350+Q3ZCM7+P07437+P68363+Q9BQE3+Q6PEY2+Q13885+Q9BVA1+Q9BUF5); experiment: Induction of microtubule stabilization in human HEK293-A cells assessed as fold change as increase in cellular acetylated alpha-tubulin level at 10 uM incubated for 4 hrs by ELISA relative to control
Summary of the method: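 QBI293 cells (2 × 10^5/well) plated overnight, then fresh medium with compound (from 4–20 mM DMSO stocks) or vehicle (0.25–0.3% DMSO) for 4 h. Whole-cell extracts normalized by BCA protein; AcTub and total α-tubulin quantified by ELISA, as fold-change versus DMSO cells; one-way ANOVA.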

[2] = biological target: T1, Tubulin (Homo sapiens); experiment: Induction of microtubule stabilization in human HEK293-A cells assessed as fold change in cellular acetylated alpha-tubulin level at 10 uM incubated for 4 hrs by ELISA relative to cevipabulin
Summary of the method: (§1)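 QBI293 cells (2 × 10^5/well) treated 4 h with compound or DMSO vehicle; AcTub in whole-cell extracts measured by ELISA with BCA protein normalization. Fold-change in AcTub relative to DMSO then expressed against change produced by positive-control reference compound at 100 nM run alongside, to correct day-to-day responsiveness.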

[3] = biological target: T1, Tubulin (Homo sapiens); experiment: Induction of microtubule stabilization in human HEK293-A cells assessed as fold change in cellular acetylated alpha-tubulin level at 1 uM incubated for 4 hrs by ELISA relative to cevipabulin; summary of the method: as §1

Row | Compound | fold change (FC) [1] | fold change (FC) [2] | fold change (FC) [3]
1 | C[C@H](Nc1c(-c2c(F)cc(F)cc2F)c(Cl)nc2ncnn12)C(C)(C)C | 3.36 | 0.43 | –
2 | CC(C)[C@@H](C)Nc1c(-c2c(F)cc(OCCCN(C)C)cc2F)c(Cl)nc2ncnn12 | – | – | 11.3
